Yeast UUG start: modulators of yeast start codon fidelity, primary screen, whole organism, S. cerevisiae, single point, plate reader | S. cerevisiae UUG-firefly luciferase reporter, luminescence/redox ratio | activity score, % at 18.7 µM | hit rate 0.13% among 350,000;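 active = replicate mean at a twofold rise or more, about +100% in these data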;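 note: firefly luciferase made from a UUG start codon reports start codon fidelity; reporter light over untreated wells divided by growth signal over untreated wells; some hits fall short of that in this replicate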
RAD54 inh: RAD54 (human) branch migration inhibition. Q92698. RAD54 Holliday junction branch migration, FAM/BHQ fluorescence. inhibition, % at 10.4 µM. 0.14% of 360,000 active;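 active = mean normalized replicate activity at least 40 and at least half of replicates scoring 40 or more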;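 also: 0% = median of neutral control wells and 100% = median of positive control wells; inhibitors cause a drop in the FAM fluorescence signal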
CASP6 VEID inh: caspase-6 (human) enzyme inhibition; P55212; purified caspase-6, Z-VEID-R110 cleavage fluorescence; inhibition, % at 12.5 µM; 0.53% of 350,000 active;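 active = mean inhibition across replicates at least about 35%, with every replicate also reaching that limit, limit read from the data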;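 also: 0% = median of neutral control wells and 100% = no fluorescence left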
INS-1E GSIS act: primary screen for activators of insulin secretion dependent on glucose, INS-1E cells, GLuc reporter luminescence; INS-1E GLuc reporter insulin secretion, 2-3 h; activation, % at 16.6 µM; 0.61% of 370,000 active;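 active = lowest replicate activation of at least 40%, so every replicate reaches that level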;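 also: 0% = median of neutral control wells and 100% = median of IBMX positive control wells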
RAD52 anneal inh: blocks human RAD52 DNA annealing; inhibition, % at 18.7 µM; recombinant RAD52 DNA annealing, FRET fluorescence; 0.46% of 360,000 active; AID 651710; P43351;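 active = every replicate showing at least 50% inhibition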
PglD DTNB: inhibitors of Campylobacter jejuni PglD acetyltransferase; purified PglD enzyme, DTNB colorimetric CoA detection; inhibition, % at 12.5 µM; 0.098% of 360,000 active; in the data active = inhibition above about 16%, passing the limit was not always enough
An asterisk follows results filed as active; . = no result; + = active, no number; ! = a repeat was not active. Shown are actives, neighbours in structure and some others; about 1.5% of the full set was active somewhere.

1) COc1ccc(OC)c(-c2nnc3n2N=C(c2ccc(OC(F)F)c(OCC4CC4)c2)CS3)c1
2) COc1ccc(C2=Nn3c(nnc3-c3ccccc3OC)SC2)cc1OCC1CC1
3) CN1/C(=C\C(=O)COC(=O)C2COc3ccccc3O2)C(C)(C)c2ccccc21 (configuration not stated)
4) O=C(Nc1ccc(C(F)(F)F)cc1)N1C[C@@H]2N[C@H](C1)C2c1ccc(-c2cccc(F)c2)cc1 (some centres not stated)
5) N#Cc1ccc(-c2ccc([C@@H]3[C@@H]4CN(C(=O)Nc5ccc6c(c5)OCO6)C[C@H]3N4)cc2)cc1
6) N#Cc1ccc(-c2ccc(C3[C@@H]4CN(C(=O)Nc5ccc(C(F)(F)F)cc5)C[C@H]3N4)cc2)cc1 (some centres not stated)
7) Cc1ccc(-c2ccc(C3[C@@H]4CN(C(=O)Nc5ccc(C(F)(F)F)cc5)C[C@H]3N4)cc2)cc1 (some centres not stated)
8) O=C(Nc1ccccc1)N1C[C@@H]2N[C@H](C1)C2c1ccc(-c2ccccc2)cc1 (some centres not stated)
screen / no.	1	2	3	4	5	6	7	8
Yeast UUG start	-18.3	-13.3	-13.0	.	.	.	.	.
RAD54 inh	1.7	1.9	-15.8	.	.	.	.	.
CASP6 VEID inh	-0.9	-1.4	.	2.9	.	0.7	15.8	2.8
INS-1E GSIS act	-0.7	49.8*	.	113.5*	-5.3	49.3	+	-12.2
RAD52 anneal inh	-5.5	-20.2	.	62.1*	.	79.9*!	0.0	26.6
PglD DTNB	3.1	3.2	-3.5	.	.	.	.	.

Reprinted at random: 2 records from the list, in no set order.
8) O=C(Nc1ccccc1)N1C[C@@H]2N[C@H](C1)C2c1ccc(-c2ccccc2)cc1 (some centres not stated)
7) Cc1ccc(-c2ccc(C3[C@@H]4CN(C(=O)Nc5ccc(C(F)(F)F)cc5)C[C@H]3N4)cc2)cc1 (some centres not stated)
screen / no.	8	7
Yeast UUG start	.	.
RAD54 inh	.	.
CASP6 VEID inh	2.8	15.8
INS-1E GSIS act	-12.2	+
RAD52 anneal inh	26.6	0.0
PglD DTNB	.	.

New compounds follow.
9) CSCCC(C)N1CCC(Oc2ccc(C(=O)NCc3ccccn3)cc2)CC1 (configuration not stated)
10) CCc1ccc2c(c1)C(NC(C)=O)C(=O)N2CCN1CCOCC1 (configuration not stated)
11) CCCN1C(=O)C(NC(C)=O)c2ccccc21 (configuration not stated)
12) O=C1CSC(c2ccc([N+](=O)[O-])cc2)N1CCN1CCCCC1 (configuration not stated)
13) O=C1CSC(c2ccc([N+](=O)[O-])cc2)N1C1CCCCC1 (configuration not stated)
14) Cc1cc(C)c(C)c(OCCCN(C)C)c1
15) CN(C)c1cc(NC(=O)CN2CCCC2)c2ccccc2n1
16) C/C(=N/NC(N)=S)c1cc2ccc(O)cc2oc1=O
screen / no.	9	10	11	12	13	14	15	16
Yeast UUG start	-22.9	-6.9	-14.1	.	.	-13.1	-8.6	-14.4
RAD54 inh	-9.8	-37.8	7.0	.	.	-2.4	78.5*	-19.0
CASP6 VEID inh	-0.7	53.8*	.	0.4	0.4	.	-10.9	42.2*
INS-1E GSIS act	27.2	-3.1	.	13.5	86.9*	24.9	.	-0.5
RAD52 anneal inh	-26.2	31.8	.	-0.4	-1.5	.	36.1	-142.8
PglD DTNB	-5.1	10.7	-0.5	.	.	-4.9	-1.9	-7.9

By substructure: the compounds so far with an aryl methoxy group (2)
1) COc1ccc(OC)c(-c2nnc3n2N=C(c2ccc(OC(F)F)c(OCC4CC4)c2)CS3)c1
2) COc1ccc(C2=Nn3c(nnc3-c3ccccc3OC)SC2)cc1OCC1CC1
screen / no.	1	2
Yeast UUG start	-18.3	-13.3
RAD54 inh	1.7	1.9
CASP6 VEID inh	-0.9	-1.4
INS-1E GSIS act	-0.7	49.8*
RAD52 anneal inh	-5.5	-20.2
PglD DTNB	3.1	3.2

Other results follow.
17) C/C(=N\Nc1ccccn1)c1ccc(S(=O)(=O)NCc2ccco2)cc1
18) O=C(O)[C@H]1[C@H](CO)[C@H]2Cn3c(ccc(/C=C/c4ccccc4)c3=O)[C@H]2N1Cc1ccc2c(c1)OCO2
19) O=C(O)[C@@H]1[C@@H](CO)[C@@H]2Cn3c(ccc(/C=C/c4ccccc4)c3=O)[C@@H]2N1Cc1ccc2c(c1)OCO2
20) O=C1c2ccccc2C(=O)N1CCCCSc1nnnn1-c1ccccc1
21) CCc1nc2c(OCc3ccc(C(=O)OC)cc3)cccn2c1N(C)C(=O)c1ccc(C)cc1
22) COC(=O)C1=C(O)/C(=C\c2ccc(CNS(=O)(=O)c3ccc(Cl)cc3)o2)N=C1C
23) COC(=O)C1=C(O)/C(=C\c2ccc(CNS(=O)(=O)c3ccccc3)o2)N=C1C
24) O=C1NC2c3c(Cl)sc(Cl)c3C(=O)C2O1 (configuration not stated)
screen / no.	17	18	19	20	21	22	23	24
Yeast UUG start	.	.	.	-4.9	-21.7	.	.	.
RAD54 inh	.	1.4	5.8	-6.7	3.6	.	.	.
CASP6 VEID inh	.	1.1	50.1*	.	38.5*	49.1*	.	69.3*
INS-1E GSIS act	-1.7	-10.9	-3.5	.	11.8	2.0	13.5	.
RAD52 anneal inh	.	-65.1	-59.5	.	-46.9	-56.1	.	-41.6
PglD DTNB	.	-1.6	-2.4	-5.5	-3.3	.	.	.

25) O=C1NC2c3c(I)sc(I)c3C(=O)C2O1 (configuration not stated)
26) O=C(NC1CCCCC1)[C@H]1[C@H](CO)[C@H]2Cn3c(cccc3=O)[C@H]2N1CC1CCCCC1
27) COc1ccc(C(=O)Oc2ccc(/C=N/NC(=O)Cc3ccc([N+](=O)[O-])cc3)cc2)cc1
28) O=c1c(Cl)c(NCCO)cnn1-c1cccc(Cl)c1
29) COc1ccc(C(CCNC(C)c2ccccc2)C(C)C)cc1 (configuration not stated)
30) COc1ccc(C(C)NCCC(c2ccc(OC(C)C)cc2)c2ccccc2OC)cc1 (configuration not stated)
31) Nc1c(C(=O)N2CCCCC2)sc2nc3c(cc12)CCCC3
32) Cc1ccc(C(=O)c2sc3nc4c(cc3c2N)CCC4)cc1
screen / no.	25	26	27	28	29	30	31	32
Yeast UUG start	.	3.8	.	.	-3.1	.	27.6	-10.0
RAD54 inh	.	-2.7	.	.	-5.5	.	-25.1	5.4
CASP6 VEID inh	33.8	5.2	.	0.2	-3.7	15.1	-0.3	.
INS-1E GSIS act	.	2.7	46.3*	46.4*	-27.7	134.3*	-7.7	73.8*
RAD52 anneal inh	-74.7	5.3	.	-4.3	-9.0	-16.8	-0.3	.
PglD DTNB	.	-1.2	.	.	-2.7	.	-2.6	5.9

33) O=C(Nc1n[nH]c(=S)s1)c1ccco1
34) NNC(=O)CNC(=O)Nc1n[nH]c(=S)s1
35) Nc1[nH]c(C(=O)c2ccccc2)c(-c2ccccc2Br)c1C(=O)c1cccs1
36) CCCCCc1c(-c2ccc(F)cc2F)ncn1CCc1ccccc1OC
37) CCCCc1c(-c2ccc(F)cc2F)ncn1CCc1ccccc1OC
38) CCCCc1c(-c2ccc(OC)c(OC)c2)ncn1CCc1ccccc1OC
39) COc1ccccc1CCn1cnc(-c2ccccc2F)c1CC(C)C
40) CCCCc1c(-c2cccc(OC)c2)ncn1CCc1ccccc1OC
screen / no.	33	34	35	36	37	38	39	40
Yeast UUG start	-15.4	.	.	.	.	.	.	.
RAD54 inh	-8.8	.	.	.	.	.	.	.
CASP6 VEID inh	-1.3	61.3*	16.5	-1.3	3.2	0.9	-2.5	1.1
INS-1E GSIS act	5.4	-2.6	0.3	104.2*	119.6*	-24.8	41.9*	80.0*
RAD52 anneal inh	-65.0	-6.2	-10.1	-5.9	-7.5	28.4	7.3	38.9
PglD DTNB	-2.3	.	.	.	.	.	.	.

41) CSc1nc(-c2ccc(Cl)cc2)nn1C(=O)c1ccccc1
42) Cc1ccc(C)c(-n2c(N)c(C(N)=O)sc2=S)c1
43) COc1ccccc1CCn1cnc(-c2ccc(OC)c(OC)c2)c1C(C)C
44) COc1ccccc1CCn1cnc(-c2cccc(F)c2)c1C(C)C
45) CCCCc1c(Cc2cccc(F)c2)ncn1CCc1ccccc1OC
46) O=C(NC1CCCCC1)C(c1ccncc1)N(C(=O)c1csnn1)c1ccccc1F (configuration not stated)
47) COC(=O)[C@@H](NC(=O)c1ccc(OC2CCN(Cc3ccccn3)CC2)cc1)C(C)C
48) CC(CNC(=O)c1ccc(OC2CCN(Cc3ccccn3)CC2)cc1)c1ccccc1 (configuration not stated)
49) C/C=C/c1ccccc1[C@H]1[C@@H](C#N)N(c2ncc(CC)s2)[C@@H]1CO
screen / no.	41	42	43	44	45	46	47	48	49
Yeast UUG start	3.2	-21.4	.	.	.	-9.1	.	-9.0	.
RAD54 inh	1.2	-3.8	.	.	.	6.0	.	9.7	.
CASP6 VEID inh	1.5	.	4.2	-0.9	2.3	2.8	.	45.3*	2.6
INS-1E GSIS act	0.1	.	-11.1	64.2*	123.5*	-6.8	-11.8	-5.6	-3.1
RAD52 anneal inh	-12.7	.	-10.7	-12.5	2.4	-3.7	.	-16.6	64.6*
PglD DTNB	3.2	3.8	.	.	.	0.0	.	1.5	.

Assay outcomes (PubChem BioAssay)
